From US9943576B2 (priority 2014, dated 2018) come the findings set out here.

The assay deals with human uroepithelial cells. The conditions noted are these: permeability enhancing vehicles tested with surrogate fluorescent gelatin and with TEM molecules.

Turning to Big Chaps, the “Typical Results” value is listed as “Increase (Dose response)”. Take Deoxy Big Chaps: the “Typical Results” value was “Increase (Dose response)”.

On to Polyoxyethylene (10) oleoyl ether, for which the “Typical Results” value is given as “Increase (Dose response)”. Consider Polyoxyethylene (20) oleoyl ether, for which the “Typical Results” value is recorded as “Increase (Dose response)”. Consider SDS, for which the “Typical Results” value is reported as “Inhibited”.
